Data taken from patent US20240218342A1, “SITE-SPECIFIC GLYCAN REMODELING OF LYSOSOMAL ENZYMES AND APPLICATIONS THEREOF” (priority 2021, published 2024).

Molecular target: Recombinant human IGF-II R (CI-MPR) (human) (UniProt P11717)
Test: SPR, CI-MPR immobilised, rhGAA as analyte

## Recombinant human acid α-glucosidase (rhGAA, Lumizyme), native (enzyme)
  Kd: 14 nM
